{"sequences": {"note": "By UniProt entry, the sequences of proteins in these tests, tags left out. Where a name states a change or a piece, a line headed by the entry shows the natural chain unless it says otherwise.", "UniProt P31749": "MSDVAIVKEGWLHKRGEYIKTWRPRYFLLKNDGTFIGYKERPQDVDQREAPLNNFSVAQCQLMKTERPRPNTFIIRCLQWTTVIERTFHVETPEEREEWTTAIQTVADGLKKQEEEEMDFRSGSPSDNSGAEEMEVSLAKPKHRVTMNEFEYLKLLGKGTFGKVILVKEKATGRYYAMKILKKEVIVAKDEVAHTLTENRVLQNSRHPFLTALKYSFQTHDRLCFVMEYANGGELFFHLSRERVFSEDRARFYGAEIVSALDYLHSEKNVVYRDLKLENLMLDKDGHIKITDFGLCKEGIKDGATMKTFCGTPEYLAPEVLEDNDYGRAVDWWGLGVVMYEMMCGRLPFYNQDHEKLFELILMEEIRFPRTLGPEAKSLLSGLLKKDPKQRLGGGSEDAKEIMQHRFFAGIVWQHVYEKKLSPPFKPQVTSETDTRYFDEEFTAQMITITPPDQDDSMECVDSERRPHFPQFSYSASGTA"}, "source": "patent US20120190707A1", "about": "“SELECTIVE INHIBITORS OF AKT AND METHODS OF USING SAME” (priority 2008, published 2012)", "molecular_target": "Akt1 (Homo sapiens, UniProt P31749)", "experiment": "Akt1 inhibition, Z'-LYTE kit fluorescent-enzymatic assay", "assay_type": "biochemical", "details": "Table 2, derivatives of Compound 1", "procedure": "Here the top 4000 compounds out of 50000 docked compounds were selected using FlexX and Drugscore (BioSolvIT). The top 4000 docked structures were further evaluated and ranked according to Goldscore and Chemscore functions (CSCORE). A list of common 200 compounds was then selected among ranked top 700 compounds according to both scoring functions (FIG. 1B). […] The remaining 100 compounds were experimentally tested up to 30 μM against Akt1. The inhibitory activity was evaluated for the selected compounds by using Z'-LYTE™ kit assay provided by Invitrogen Corporation (19). […] Corning® 384-well low volume plates (20 μl) were used. The fluorescent-enzymatic assay has been performed following the protocol provided by Invitrogen Corporation, using a fluorescent plate reader (Victor2, Perkin-Elmer). […] C) Lineweaver-Burk Km and Km(app) evaluation for Akt1. Each measurement was performed in triplicate. […] The Ki and the Km(app) were calculated at fixed inhibitor concentrations, as reported in the text. All constant values were definitely evaluated by fitting the data to the Lineweaver-Burk plot; D) Akt1 inhibition assay using GSK-3 as a substrate. Comparison of compounds 1 and 2 (Table 1) with H89 at 10 μM. […]\nFor these purposes, we initially determined the Km and the Vmax of the enzymatic reaction involving the peptide provided by the Z'-LYTE™ kit assay and Akt1 by varying the concentration of ATP. […]"}
{"smiles": "CC1=C(C#N)c2nc(N)c(C#N)c(C)c2C1=Cc1ccc(-c2ccc(C(=O)O)cc2)o1", "note": "[Compound 4]", "values": [{"measurement": "IC50", "result": 126, "unit": "µM"}]}
